Structures are written as SMILES.

Data on one compound can be found in patent US20230277570A1, “ENPP1 Inhibitors and Their Use for the Treatment of Cancer” (The Board of Trustees of the Leland Stanford Junior …, priority 2017, published 2023).

This test relates to 4T1-luciferase tumor. Nature of the test: 4T1 tumor model: tumor volume and survival with IR, cGAMP, anti-CTLA-4. In kind it is in vivo, Balb/c mice.

In the case of `COc1cc2ncnc(N3CCC(CCP(=O)(O)O)CC3)c2cc1OC` [Compound 1, dimethyl (2-(1-(6,7-dimethoxyquinazolin-4-yl)piperidin-4-yl)ethyl)phosphonic acid], the cure rate by setting is: (20 Gy IR, then compound 1 in addition to 10 μg cGAMP intratumorally) 10%; (IR pretreatment with 1 mM compound 1 intratumorally and 200 μg anti-CTLA-4 intraperitoneally) 10%.
